Chains of the proteins cited; added tags and fusions are not shown.
UniProt P14416, whole entry, looked up: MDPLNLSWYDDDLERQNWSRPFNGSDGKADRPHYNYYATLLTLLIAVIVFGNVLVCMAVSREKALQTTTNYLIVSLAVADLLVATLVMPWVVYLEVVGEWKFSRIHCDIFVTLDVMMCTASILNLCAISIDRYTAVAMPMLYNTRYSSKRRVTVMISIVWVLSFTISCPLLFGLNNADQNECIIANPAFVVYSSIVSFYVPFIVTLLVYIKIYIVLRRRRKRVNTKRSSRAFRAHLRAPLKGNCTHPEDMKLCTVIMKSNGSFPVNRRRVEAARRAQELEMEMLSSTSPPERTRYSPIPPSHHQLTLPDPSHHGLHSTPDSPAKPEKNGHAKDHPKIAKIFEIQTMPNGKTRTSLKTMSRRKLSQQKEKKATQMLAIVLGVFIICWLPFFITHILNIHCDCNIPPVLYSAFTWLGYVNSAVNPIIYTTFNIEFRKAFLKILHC
UniProt P28223, whole entry, looked up: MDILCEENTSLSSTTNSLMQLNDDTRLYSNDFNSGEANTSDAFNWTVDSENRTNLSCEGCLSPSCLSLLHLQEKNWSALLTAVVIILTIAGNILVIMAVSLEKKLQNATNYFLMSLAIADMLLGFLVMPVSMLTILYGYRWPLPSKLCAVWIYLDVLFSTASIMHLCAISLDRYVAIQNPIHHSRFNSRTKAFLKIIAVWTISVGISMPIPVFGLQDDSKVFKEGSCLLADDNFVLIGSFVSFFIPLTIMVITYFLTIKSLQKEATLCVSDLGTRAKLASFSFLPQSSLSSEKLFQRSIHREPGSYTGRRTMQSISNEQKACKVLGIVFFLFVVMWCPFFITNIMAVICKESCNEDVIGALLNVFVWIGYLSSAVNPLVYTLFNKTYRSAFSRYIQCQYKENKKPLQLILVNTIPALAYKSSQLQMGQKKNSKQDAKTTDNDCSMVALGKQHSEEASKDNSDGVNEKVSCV
UniProt P21728, whole entry, looked up: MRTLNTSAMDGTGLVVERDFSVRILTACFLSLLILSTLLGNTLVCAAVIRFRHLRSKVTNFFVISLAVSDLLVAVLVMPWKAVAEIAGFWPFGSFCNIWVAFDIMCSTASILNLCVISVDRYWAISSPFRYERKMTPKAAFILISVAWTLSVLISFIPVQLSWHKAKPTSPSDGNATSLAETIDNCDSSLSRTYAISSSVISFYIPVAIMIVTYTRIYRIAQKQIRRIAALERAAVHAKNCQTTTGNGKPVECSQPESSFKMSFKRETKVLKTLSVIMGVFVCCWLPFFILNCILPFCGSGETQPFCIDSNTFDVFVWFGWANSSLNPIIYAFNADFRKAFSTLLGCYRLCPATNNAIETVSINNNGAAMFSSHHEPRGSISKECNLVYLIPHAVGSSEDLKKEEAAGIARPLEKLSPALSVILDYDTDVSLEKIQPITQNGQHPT

According to patent publication US20240415832A1 (priority 2021, published 2024):

How the values were obtained:
D2 = D2 (Homo sapiens, UniProt P14416); assay: Receptor binding, D2; conditions: D2, @ 100 nM
5-HT2A = 5-HT2A (Homo sapiens, UniProt P28223); assay: Receptor binding, 5-HT2A; conditions: @ 10 nM
D1 = D1 (Homo sapiens, UniProt P21728); assay: Receptor binding, D1; conditions: D1, @ 50 nM
Crl:CD rats = assay: Reversal of fentanyl-induced respiratory depression in rats (head-out plethysmograph)
[1] = Group (3): 0.15 mg/kg fentanyl s.c., then 1.0 mg/kg Ex. 1 i.v.
[2] = Group (4): 0.15 mg/kg fentanyl s.c., then 3.0 mg/kg Ex. 1 i.v.
[3] = Group (5): 0.15 mg/kg fentanyl s.c., then 5.0 mg/kg Ex. 1 i.v.
[4] = Group (6): vehicle pre-treatment, then 5.0 mg/kg Ex. 1 i.v. (no fentanyl)

SMILES: O=C1CN2c3c(cccc3[C@@H]3CN(CCCOc4ccc(F)c(O)c4)CC[C@@H]32)N1
- maximum inhibition (D2): 0% @

SMILES: N#Cc1ccc(OCCCN2CC[C@H]3[C@@H](C2)c2cccc4c2N3CC(=O)N4)cc1
- maximum inhibition (5-HT2A): 0% @
- maximum inhibition (D1): 0% @

SMILES: O=C1CN2c3c(cccc3[C@@H]3CN(CCCOc4ccc(Cl)cc4)CC[C@@H]32)N1
- maximum inhibition (D1): 0% @

SMILES: O=C1CN2c3c(cccc3[C@@H]3CN(CCCOc4cccc5cccnc45)CC[C@@H]32)N1
- maximum inhibition (5-HT2A): 0% @
- maximum inhibition (D1): 0% @

SMILES: O=C1CN2c3c(cccc3[C@@H]3CN(CCCOc4ccc(F)cc4)CC[C@@H]32)N1 [Example 1, (6bR,10aS)-8-(3-(4-fluorophenoxy)propyl)-6b,7,8,9,10,10a-hexahydro-1H-pyrido[3′,4′:4,5]pyrrolo[1,2,3-de]quinoxalin-2(3H)-one]
- Mean MV (Crl:CD rats; [1]): 112 mL
- Mean TV (Crl:CD rats; [1]): 1.12 mL
- Mean MV (Crl:CD rats; [2]): 161 mL
- Mean TV (Crl:CD rats; [2]): 1.27 mL
- Mean MV (Crl:CD rats; [3]): 163 mL
- Mean TV (Crl:CD rats; [3]): 1.48 mL
- Mean MV (Crl:CD rats; [4]): 210 mL
- Mean TV (Crl:CD rats; [4]): 1.73 mL
